Assay results taken from patent US20190369122A1, “METABOLIC DISORDERS” (priority 2016, published 2019).

System: CONVR mice
Assay: Metabolic cages (PhenoMaster) in CONVR mice
Details: 100 μg i.p. twice a day for 3 days
Description: Mice were singly housed for two days before being transferred to the PhenoMaster cages, and allowed an additional 2 days to acclimatize to the new cage before taking measurements. Parameters were automatically measured every 15 min for 5 days. During the measurements, the mice had free access to water and food. […] Oxygen consumption (VO2) was calculated from measurements of oxygen and carbon dioxide concentration in the reference cage compared to the sample cage. Measurements of oxygen consumption and energy expenditure were adjusted to lean body mass, which was determined by MRI (EchoMRI, Houston, Tex., USA).

Q: For `O=C(O)CCc1cnc[nH]1` [imidazole propionate], which “body weight, liver and WAT weight or food intake” value is on record?
A: The value was “without any significant effect”.
